Measurements published in PubChem BioAssay AID1875 (Broad Institute, 2009).
Only a part is listed here, and it is no random draw. The source made the active and inactive calls.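 Rule for the calls: active = lowest replicate activity score at least 50, where 100 means six control SD above control mean; inconclusive = lowest score under 50 but half or more replicates reach 50; inactive = the rest.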

test: polyadenylation inhibitors in yeast reporter cells, primary screen, luminescence, S. cerevisiae (AID 1875);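 note: yeast exposed to compound for 9 h at 30 °C; higher score means more reporter readthrough which indicates perturbed polyadenylation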; conditions: S. cerevisiae SKY197-pL101 polyadenylation reporter, beta-gal luminescence; at 12 µM; stronger effect = higher value; efflux-impaired pdr1/pdr3 knockout yeast; score 100 = 6 SD above DMSO

SMILES | activity score
O=C(OC1CN2CCC1CC2)C1c2ccccc2Oc2ccccc21 (configuration not stated) | inactive: -18.3%
N#CC1(Nc2ccccc2)CCN(Cc2ccccc2)CC1 | inactive: 9.1%
O=C(NCC1(N2CCOCC2)CCCCC1)c1cc2ccccc2o1 | inactive: 2%
O=C(NCC1(N2CCCCC2)CCCCC1)c1ccc(Cl)nc1 | inactive: -5.23%
Cc1cc(C)cc(N(C(=O)c2ccccc2)C2CCN(C(=O)OC(C)(C)C)CC2)c1 | inactive: 17.2%
O=C(NCC1(N2CCCCC2)CCCCC1)c1ccc(F)cc1 | inactive: 2.62%
COc1ccc(NC2CCN(CCc3ccccc3)CC2)c(OC)c1 | inactive: -7.44%
CCOC(=O)N1CCC(Nc2ccc(F)cc2)CC1 | inactive: 10.1%
CCOc1ccc(C)cc1CN(CCCl)CCCl | inactive: 7.1%
COc1cc(C(=O)NCC2(N(C)C)CCCCC2)ccc1OC(F)F | inactive: 10.7%
CCOC(=O)N1CCC(Nc2cccc(C)c2)CC1 | inactive: -11.6%
Cc1ccc(OCC(C)C)c(CN(CCCl)CCCl)c1 | inactive: 12.2%
O=C(NCC1(N2CCCCC2)CCCCC1)c1cccc([N+](=O)[O-])c1 | inactive: 22%
CCN1CCC(Nc2ccc(Cl)cc2)CC1 | inactive: -7.85%
N#CC1(Nc2ccccc2)CCN(CCc2ccccc2)CC1 | inactive: -2.98%
O=C(NCC1(N2CCCCC2)CCCCC1)c1ccc(OC(F)F)cc1 | inactive: 5.58%
CN1CCN(CCOC(=O)C(O)(c2ccccc2)c2ccccc2)CC1 | inactive: 2.24%
COc1ccc(NC2CCN(C(=O)OC(C)(C)C)CC2)cc1 | inactive: -9.3%
COc1cc(C(=O)NCC2(N3CCCCC3)CCCCC2)ccc1OC(F)F | inactive: 23.1%
O=C(NCC1(N2CCOCC2)CCCCC1)c1cc(=O)[nH]c2ccccc12 | inactive: -0.578%
O=C(NCC1(N2CCCCC2)CCCCC1)c1cccc(C(F)(F)F)c1 | inactive: 3.4%
COc1cc(OC)c(C(=O)NCC2(N(C)C)CCCCC2)cc1OC | inactive: 1.28%
COc1ccc(CN(CCCl)CCCl)cc1Cl | inactive: -12.2%
CN(C)c1cccc(C(=O)NCC2(N3CCCCC3)CCCCC2)c1 | inactive: 3.73%
CC(C)c1ccc(NC2CCN(C(=O)OC(C)(C)C)CC2)cc1 | inactive: 9.21%
CCCOc1ccc(C(=O)NCC2(N(C)C)CCCCC2)cc1OC | inactive: -5.97%
CN1CCC(Nc2cccc(F)c2)CC1 | inactive: -2.06%
